Assay results from patent US6521751B1, “Recombinant nucleic acid sequences and methods for determining both genotoxicity and mutagenicity of a sample and the kinetics of the genotoxicity” (Vlaamse Instelling voor Technologisch Onderzoek (VITO), priority 1998, dated 2003).

Key:
S. typhimurium = conditions: cited from earlier work; for MINIMAL DETECTED CONCENTRATION (MDC): AMES, literature values, pos/neg where MDC could not be calculated; for AMES (result): Ames test, Table 3
[1] = tested on: S. typhimurium TA104 containing pMOL1068; assay: Luminescence genotoxicity test, recN2-4 lux fusion
[2] = tested on: S. typhimurium TA98 containing pMOL1068; assay: Luminescence genotoxicity test, recN2-4 lux fusion
[3] = tested on: S. typhimurium TA98 containing pMOL890; assay: Luminescence genotoxicity test, sfiA-lux fusion
[4] = tested on: S. typhimurium TA104 containing pMOL890; assay: Luminescence genotoxicity test, sfiA-lux fusion
[5] = tested on: S. typhimurium TA104 containing pMOL1066; assay: Luminescence genotoxicity test, recN1-2 lux fusion
[6] = tested on: TA 98 and TA104 strains containing pMOL1067 or pMOL1068; assay: Genotoxicity tests with hybrid lux strains, final outcome (Table 3)
E. coli (sfiA-lacZ) = conditions: SOS chromotest, cited from earlier work; for SOS (result): Table 3; for MINIMAL DETECTED CONCENTRATION (MDC): literature values
[7] = tested on: S. typhimurium TA98 containing pMOL1067; assay: Luminescence genotoxicity test, recN1-3 lux fusion
[8] = tested on: S. typhimurium TA104 containing pMOL1067; assay: Luminescence genotoxicity test, recN1-3 lux fusion
[9] = tested on: S. typhimurium TA104 containing pMOL1069; assay: Luminescence genotoxicity test, recN3-4 lux fusion

Molecule	MINIMAL DETECTED CONCENTRATION (MDC) (S. typhimurium)	AMES (result) (S. typhimurium)	MINIMAL DETECTED CONCENTRATION (MDC) [1]	MINIMAL DETECTED CONCENTRATION (MDC) [2]	MINIMAL DETECTED CONCENTRATION (MDC) [3]	MINIMAL DETECTED CONCENTRATION (MDC) [4]	MINIMAL DETECTED CONCENTRATION (MDC) [5]	OUTCOME (genotoxicity, final outcome) [6]	SOS (result) (E. coli (sfiA-lacZ))	MINIMAL DETECTED CONCENTRATION (MDC) (E. coli (sfiA-lacZ))	MINIMAL DETECTED CONCENTRATION (MDC) [7]	MINIMAL DETECTED CONCENTRATION (MDC) [8]	MINIMAL DETECTED CONCENTRATION (MDC) [9]
O=C1c2cc([N+](=O)[O-])cc([N+](=O)[O-])c2-c2c1cc([N+](=O)[O-])cc2[N+](=O)[O-]	0.001 nmol/assay	pos	0.022 nmol/assay	0.011 nmol/assay	0.056 nmol/assay	0.011 nmol/assay	0.022 nmol/assay	pos	pos	0.24 nmol/assay	0.022 nmol/assay	0.011 nmol/assay	0.011 nmol/assay
K2Cr2O7	91 nmol/assay	pos	1.4 nmol/assay	1.4 nmol/assay	2.7 nmol/assay	2.7 nmol/assay	21.8 nmol/assay	pos	pos	136 nmol/assay	5.4 nmol/assay	5.4 nmol/assay	10.9 nmol/assay
SeO2		pos						pos					
